The results in this text go back to patent publication US7473788B2, “Analogs of terpene trilactones from Ginkgo biloba and related compounds and uses thereof” (The Trustees of Columbia University in the City of New York, priority 2002, dated 2009).

Amino acid sequences for entries named in this document (tags omitted). A change or cut given only in a name is not applied to a line headed by its entry.
UniProt P21556: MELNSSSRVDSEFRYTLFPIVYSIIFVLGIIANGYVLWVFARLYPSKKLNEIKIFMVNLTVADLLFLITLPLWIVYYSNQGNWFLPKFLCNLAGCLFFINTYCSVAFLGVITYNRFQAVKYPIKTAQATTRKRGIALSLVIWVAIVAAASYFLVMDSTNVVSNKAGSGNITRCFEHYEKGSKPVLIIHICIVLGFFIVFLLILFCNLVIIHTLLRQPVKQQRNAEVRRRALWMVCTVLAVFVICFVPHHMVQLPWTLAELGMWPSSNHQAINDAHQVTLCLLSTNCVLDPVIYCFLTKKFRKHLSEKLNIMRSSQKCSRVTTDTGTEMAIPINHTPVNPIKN

In test [1] the target is T1, PAFR (Cavia porcellus, UniProt P21556). Description: Radioligand binding assay, [^3H]-WEB 2086 displacement, membrane fractions of PAFR-Tg mice (compounds 1-15). Conditions: Inhibition of [^3H]-WEB 2086 binding; cloned PAFR; Cheng-Prusoff from IC50.
The target in test [2] is T1, PAFR. Description: Radioligand binding assay, [^3H]-WEB 2086 displacement, membrane fractions of PAFR-Transgenic mice (compounds 16-31). To be noted: Inhibition of [^3H]-WEB 2086 binding, means of two independent experiments performed in triplicate.

On to `CC1C(=O)OC2C(O)C34C5OC(=O)C3(OC3OC(=O)C(OCc6ccc(C(=O)c7ccccc7)cc6)C34C(C(C)(C)C)C5O)C12O` (centres unmarked), for which the Ki in test [1] was 580 nM.

With `CC1C(=O)OC2C(O)C34C5OC(=O)C3(OC3OC(=O)C(O)C34C(C(C)(C)C)C5N)C12O` (centres unmarked), in test [2], the Ki worked out at 8640 nM.

As to `CC1C(=O)OC2C(O)C34C5OC(=O)C3(OC3OC(=O)C(O)C34C(C(C)(C)C)C5F)C12O` (centres unmarked) [Compound 13, 7-Fluoro ginkgolide B], the inhibition constant Ki in test [2] (listed as 7α-F-GB (21)) and in test [1] was 990 nM in each case.

The compound `CC1C(=O)OC2C(O)C34C5CC(C(C)(C)C)C36C(OC(=O)C6OCCF)OC4(C(=O)O5)C12O` (centres unmarked) displayed a Ki in test [1] of 4870 nM.

In turn, `CC1C(=O)OC2C(O)C34C5CC(C(C)(C)C)C36C(OC(=O)C6OCc3ccc(C(=O)c6ccccc6)cc3)OC4(C(=O)O5)C12O` (centres unmarked) showed a Ki in test [1] of 150 nM.

In the case of `CC1C(=O)OC2C(O)C34C5OC(=O)C3(OC3OC(=O)C(O)C34C(C(C)(C)C)C5Cl)C12O` (stereo not drawn) [7α-Cl-GB (22), 7α-Chloro Ginkgolide B], the Ki in test [2] stood at 110 nM.

In test [1], `CC1C(=O)OC2C(O)C34C5OC(=O)C3(OC3OC(=O)C(OCc6ccc(C7(C(F)(F)F)N=N7)cc6)C34C(C(C)(C)C)C5O)C12O` (centres unmarked) displayed a Ki of 470 nM.
